Data reported in PubChem BioAssay AID592 (National Center for Advancing Translational Sciences (NCATS), 2007).
This is one part of the list. Calls of active or inactive are those of the source. No rule for the calls is given here.

Experiment: qHTS Assay for Spectroscopic Profiling in A647 Spectral Region
Settings: Compound fluorescence, A647 channel (570/671 nm), Tris buffer; hits give high values
Description: NIH Molecular Libraries Screening Centers Network [MLSCN] NIH Chemical Genomics Center [NCGC] […] Occasionally, the artifactual effect may originate from the compounds own spectral or other biophysical properties which generally tend to track its assay concentration. Pre-screening/profiling the library with respect to the compounds spectral properties should help one exclude false positives early on. While the most informative fluorescent profiling data set is obtained by performing a full excitation and emission scan of each well by using a monochromator-based plate reader, such an approach is practical only on a very limited scale as scanning each well requires long time. An alternative approach, applied here, is to perform plate reader scans using selected excitation and emission wavelength pairs to generate a multidimensional relational database that correlates compound concentration and the respective relative fluorescence intensity at a given wavelength set. A standard curve of Alexa 647 (A647) present on each plate as six-point concentration series, was used to compute a normalized fluorescence response, termed dye-equivalent concentration, for each compound at each concentration.
NCGC Assay Protocol Summary: Buffer: 100 mM Tris buffer, pH 8.0 Dye standard plate: The wells in columns 1 through 4 of a Kalypsys polypropylene 1536-well compound plate were filled with standard solutions of fluorophore corresponding to the spectral region of interest. Solutions of A647 were placed in the following wells: AC1, AD1: 3 mM, AC2, AD2: 300 uM, AC3, AD3: 30 uM, AC4, AD4: zero (DMSO), AE1, AF1: 3 uM, AE2, AF2: 900 nM, AE3, AF3: 300 nM, AE4, AF4: zero (DMSO). Assay Steps: Six uL of buffer were dispensed to 1536-well Greiner black plates. Compounds and dye standards (23 nL) were transferred via Kalypsys PinTool. The plates were incubated for 15 min at room temperature, and then read on ViewLux (Perkin-Elmer) High-throughput CCD imager using 570 nm and 671 nm excitation and emission filter set. Keywords: NIH Roadmap, MLSCN, MLI, MLSMR, qHTS, NCGC, A647, A-647, Fluorescent Profiling.
With NC1CCCCC1.NP(=O)(O)N(CCCl)CCCl the max dye-equivalent concentration was inactive: 9.5 nM. With N#CC1(Nc2ccccc2)CCN(CCc2ccccc2)CC1 the max dye-equivalent concentration was inactive: 9.9 nM. With O=C(OC1CN2CCC1CC2)C1c2ccccc2Oc2ccccc21 (configuration not stated) the max dye-equivalent concentration was inactive: 31 nM. In the case of CCC(CO)(C(=O)OC1CN2CCC1CC2)c1ccccc1 (configuration not stated), the max dye-equivalent concentration is reported as inactive: 50 nM. For CCOc1ncccc1C(=O)NCC1(N2CCOCC2)CCCCC1, the max dye-equivalent concentration was inactive: 10 nM. For O=C(O)C1(Nc2ccccc2)CCN(Cc2ccccc2)CC1, the max dye-equivalent concentration was inactive: 21 nM. In the case of N/C(=N\O)c1c(N)no[n+]1[O-], the max dye-equivalent concentration is reported as inactive: 21 nM.
